In paper PMC3037833 (Angewandte Chemie (International ed. in English), 2010):
Blank lines part the entries; values can stand above or below the compound they belong to.

What was measured:
[1] = target: N2P1 (NHERF2 PDZ domain 1) (Homo sapiens, UniProt Q15599); test: Fluorescence polarization; assay type: binding; details: SD
[2] = target: N2P2 (NHERF2 PDZ domain 2) (Homo sapiens, UniProt Q15599); test: Fluorescence polarization; assay type: binding; details: SD
CALP (CAL PDZ domain) = CALP (CAL PDZ domain) (Homo sapiens, UniProt Q9HD26); test: Fluorescence polarization; assay type: binding; details: SD
CFTR10 (Homo sapiens) = test: fluorescence polarization competition

Ki [1]: 1.1 ± 0.1 µM
Ki [2]: 0.1 ± 0.02 µM
Compound: CC(C)C[C@H](NC(=O)[C@H](CCCNC(=N)N)NC(=O)[C@@H](NC(=O)[C@H](CC(=O)O)NC(=O)[C@H](CCC(N)=O)NC(=O)[C@@H](NC(=O)[C@H](CCC(=O)O)NC(=O)[C@H](CCC(=O)O)NC(=O)[C@H](CCC(=O)O)NC(=O)[C@@H](N)[C@@H](C)O)C(C)C)[C@@H](C)O)C(=O)O [CFTR10, reference compound]

Ki (CALP (CAL PDZ domain)): 20.3 ± 2.6 µM
Compound: CC[C@H](C)[C@H](NC(=O)[C@@H](NC(=O)[C@H](CO)NC(=O)[C@@H](NC(=O)[C@@H]1CCCN1C(=O)[C@H](Cc1c[nH]c2ccccc12)NC(=O)[C@H](CCCNC(=N)N)NC(=O)[C@@H](N)CO)[C@@H](C)O)[C@@H](C)CC)C(=O)O [iCAL36_8]

Ki (CFTR10 (Homo sapiens)): 390 µM
Compound: CAL PDZ (from UniProt Q9HD26)
